Reference: patent US9585875B2, “TRPM8 antagonists” (Dompé S.P.A., priority 2011, dated 2017)

Chains of the proteins cited; added tags and fusions are not shown.
UniProt Q7Z2W7, whole entry: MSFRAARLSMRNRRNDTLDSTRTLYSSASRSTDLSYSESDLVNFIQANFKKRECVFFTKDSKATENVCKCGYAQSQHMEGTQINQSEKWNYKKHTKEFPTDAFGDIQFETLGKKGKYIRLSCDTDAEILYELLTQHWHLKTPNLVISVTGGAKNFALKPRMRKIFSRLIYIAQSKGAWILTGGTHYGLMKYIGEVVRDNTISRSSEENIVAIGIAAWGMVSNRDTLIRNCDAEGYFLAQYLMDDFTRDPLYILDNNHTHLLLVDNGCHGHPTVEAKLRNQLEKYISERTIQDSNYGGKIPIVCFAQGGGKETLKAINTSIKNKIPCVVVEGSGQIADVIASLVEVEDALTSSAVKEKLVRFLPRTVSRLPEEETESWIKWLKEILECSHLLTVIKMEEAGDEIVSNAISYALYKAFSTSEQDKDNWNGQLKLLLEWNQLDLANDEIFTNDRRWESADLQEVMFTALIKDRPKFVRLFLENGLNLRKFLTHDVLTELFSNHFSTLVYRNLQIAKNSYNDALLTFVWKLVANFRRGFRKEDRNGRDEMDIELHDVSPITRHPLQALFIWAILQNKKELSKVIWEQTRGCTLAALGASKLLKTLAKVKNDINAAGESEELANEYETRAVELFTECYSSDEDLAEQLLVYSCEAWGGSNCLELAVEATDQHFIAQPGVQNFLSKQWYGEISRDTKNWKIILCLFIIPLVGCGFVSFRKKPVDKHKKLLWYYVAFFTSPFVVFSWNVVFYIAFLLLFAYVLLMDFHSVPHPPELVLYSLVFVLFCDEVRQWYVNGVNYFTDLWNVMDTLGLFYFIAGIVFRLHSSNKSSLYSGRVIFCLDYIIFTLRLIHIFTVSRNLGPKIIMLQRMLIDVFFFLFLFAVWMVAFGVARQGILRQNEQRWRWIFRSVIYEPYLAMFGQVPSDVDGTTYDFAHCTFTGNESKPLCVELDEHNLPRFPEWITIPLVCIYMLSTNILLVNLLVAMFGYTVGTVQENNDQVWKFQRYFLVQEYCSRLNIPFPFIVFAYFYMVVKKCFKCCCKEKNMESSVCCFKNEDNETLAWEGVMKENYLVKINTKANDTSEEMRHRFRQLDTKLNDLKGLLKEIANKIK

Biological target: TRPM8 (Homo sapiens, UniProt Q7Z2W7)
Test: cell-based

CCn1nnc(-c2sc(-c3cccc(F)c3)nc2O)n1 [Compound 118, 2-(3-fluorophenyl)-5-(2-ethyl-2H-tetrazol-5-yl)-1,3-thiazol-4-ol]
IC50: 20 nM
